Assay results published in publication PMC9630929 (Journal of medicinal chemistry, 2022).

What was measured:
[1] = system: other tested bromodomains; details: panel of up to 30 bromodomains in seven subfamilies

Structure (SMILES)	growth inhibition of HEK293T cells (HEK293T cells)	selectivity among the tested bromodomains (DSF) [1]
Cc1cccc(C)c1C1NC(=O)c2c(Cl)cccc2N1 (centres unmarked) [Compound 26, 5-Chloro-2-(2,6-dimethylphenyl)-2,3-dihydroquinazolin-4(1H)-one]	off-target toxicity at ≥10 μM concentrations	
CN(C)/C=C1\CCn2c1nc(=O)c1c(Cl)cccc12 [Compound 2, (E)-6-Chloro-3-((dimethylamino)methylene)-2,3-dihydropyrrolo[1,2-a]quinazolin-5(1H)-one]		unselective
